Source: PubChem
12-LOX inh – blocks human arachidonate 12S-lipoxygenase; P18054; purified 12hLO, xylenol orange hydroperoxide absorbance; Potency, µM (series often up to 108 µM), for inactives: top-dose activity change, negative = inhibition, actives largely listed as inhibitors; 1.1% of 580,000 active; further: potency means the concentration at half of the fitted maximal effect; on the % scale 0 is the no-effect control and ±100 the full control effect
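Purified human 12hLO (150 nM final) in 25 mM Hepes, 0.01% Triton X-100, pH 7.0 was preincubated 15 min at room temperature with compound. Then 40 uM arachidonic acid was added, 30 min. Hydroperoxide was read by Fe-XO absorbance ratio 573/405 nm.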
ERG Ets-DNA blk – blocks human ERG Ets domain binding to DNA. AID 624246. P11308. fluorescence polarization, His-ERG Ets domain / labelled DNA. 0.028% of 370,000 active. Potency, µM (doses to about 76.9 µM), for the others: at the top dose FP activity, negative = inhibition, hits mostly inhibitors; active means well fitted inhibition curve with a large enough effect in the polarisation, with a control signal flat; inconclusive means small, poorly fitted or top-dose-only effect, or effect the other way, or a change in a side signal; inactive means no such curve, though single readings can be large or run the other way; the % refers to the polarisation;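 further: polarization taken with two DNA probes labelled with fluorescein and Texas red; potency means the concentration at half of the fitted maximal effect; % of control where 0% means no effect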
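His-tagged ERG Ets domain (1 uM in the protein solution; 300mM KCl, 50mM Tris-HCl, 1mM EDTA, 1mM DTT, pH 7.5) received compound, then a probe mix of 5 nM fluorescein-DNA and 100nM Texas-615-DNA. Fluorescence polarization was read for both dyes.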
Giardia kill – Giardia lamblia killing; 0.15% of 340,000 active; activity change, % at 7.66 µM, hits read low; Giardia lamblia trophozoite viability; AID 540267; in the data active means activity change below about -80%; inconclusive means between about -30% and that limit;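 further: parasites exposed to compound for two days anaerobically before the ATP read; on the % scale 0 is the no-effect control and ±100 the full control effect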
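Killing of trophozoites was scored by loss of ATP luminescence after a 48 hrs anaerobic exposure to compounds at 37 deg C, using 100 cells per well.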
miR-21 FLuc – miR-21 reporter, rising signal | AID 2288 | HeLa miR-21 FLuc reporter, luciferase, 48 h | 340,000 tested, under 10 active | Potency, µM (titrated, usually from 38.3 µM), for the others: at the top dose reporter change, positive = more light; active = well fitted rising curve with a large enough effect; inconclusive = small, poorly fitted or top-dose-only effect; inactive = no such curve, though single readings can be large or run the other way;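 also: % of control where 0% means no effect; miR-21 action dims this reporter so a rising signal means less miR-21 action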
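Luminescence from a firefly luciferase reporter carrying a miR-21 binding site downstream, stably expressed under a CMV promoter in HeLa cells that make miR-21 endogenously, reports miRNA modulation after 48 h compound exposure up to approximately 40uM final.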
PINK1 expr mod – changes PINK1 expression | PINK1 immunofluorescence, high-content cytometry, 24 h | Potency, µM (top dose mostly 76.6 µM), for inactives: at the highest dose activation (PINK1 increase), hits mostly activators | 0.2% of 410,000 active | AID 624263; active means well fitted activation curve with a large enough effect; inconclusive means small, poorly fitted or top-dose-only effect; cell line not stated here; further: potency means the concentration at half of the fitted maximal effect; % of control where 0% means no effect; nearly all actives have a fitted effect of over 65% in size
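A stable cell line was treated with compounds at 5 concentrations for 24 hours, with CCCP as control. PINK1 levels and mitochondrial localization were measured by immunofluorescence with mitochondrial, cell and nuclear markers after fixation, read by laser-scanning cytometry.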
PTHR1 agonist – PTHR1 (human) receptor agonism; HEK293 GP2 PTHR1 cells, GloSensor cAMP luminescence, 1 h; Potency, µM (top dose mostly 115 µM), without a hit: at the top dose activation, actives largely listed as activators; 0.075% of 410,000 active; AID 743266; further: potency means the concentration at half of the fitted maximal effect; nearly all actives have a fitted effect of over 55% in size
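HEK-293-derived GP2 cells expressing PTHR1 and a GloSensor cAMP reporter, 3,000/well, plated overnight, given luciferin plus IBMX (each 0.5 mM as added) for 1 h at 37 °C, then compound for 1 h at 37 °C. Luminescence was read after 15 min at room temperature.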
The depositor's hits bear a star; i = inactive; u = inconclusive; x = not tested or not shown; ! = not confirmed by another sample; [ ] = remark or other dose. An excerpt weighted towards active compounds, which were near 1.3% of everything screened. Unless noted, the call rests on the fitted dose curve; in most records, active means well fitted curve in the direction sought with a large enough effect; inconclusive means small, poorly fitted or top-dose-only effect, or another doubt; inactive means no such curve, though single readings can be large; an effect the other way counts as inactive or inconclusive.

Key to letters: A = 12-LOX inh; B = ERG Ets-DNA blk; C = Giardia kill; D = miR-21 FLuc; E = PINK1 expr mod; F = PTHR1 agonist
> CCc1ccc(CNC(=O)C2COc3ccccc3C2)cc1 (stereo not given)
  A = -5%	B = 0%	C = x	D = -21%	E = -1%	F = i
> COc1ccc(NS(=O)(=O)c2ccc3c(c2)[C@H]2C=CC[C@H]2[C@@H](c2ccc(C(=O)O)cc2)N3)cc1
  A = 28µM*!	B = 10%	C = 1	D = 1%	E = 0%	F = -23%
> CCCNC(=O)N1CCC(N2C(=O)[C@H](OCCOC)[C@@H]2c2ccncc2)CC1
  A = 34%	B = x	C = x	D = x	E = x	F = x
> COc1ccc(C=NNC(=S)Nc2ccc(F)cc2)cc1OC
  A = u	B = -3%	C = -6	D = x	E = 8%	F = -36%
> Cc1cc(/C=C(\C#N)c2cccc(C(F)(F)F)c2)c(C)n1C
  A = 40µM*	B = x	C = x	D = x	E = x	F = x
> O=C(NCC1(COc2cnccn2)C[C@@H](O)[C@@H](O)C1)Nc1cccnc1 (stereo not given in full)
  A = 25µM*	B = x	C = x	D = x	E = x	F = x
> CC(=O)NCC1(COc2cnccn2)C[C@@H](O)[C@@H](O)C1 (stereo not given in full)
  A = 1%[176 µM]	B = x	C = x	D = x	E = x	F = x
> COCCCNC(=O)c1ccc(CS(=O)(=O)c2ccccc2OC)o1
  A = 0%	B = 5%	C = -10	D = -1%	E = 2%	F = i
> COc1ccc(NC(=S)NNc2ccc([N+](=O)[O-])cc2S(=O)(=O)Nc2ccc(C)cc2C)cc1
  A = 22µM*	B = 1%	C = 6	D = 10%	E = u	F = -23%
> Cc1ccc(NS(=O)(=O)c2cc([N+](=O)[O-])ccc2NNC(=S)Nc2cccc(Cl)c2)c(C)c1
  A = x	B = -1%	C = -3	D = 18%	E = u	F = -23%
> Cc1ccc(NS(=O)(=O)c2cc([N+](=O)[O-])ccc2NNC(=S)Nc2cc(C)ccc2C)c(C)c1
  A = 25µM*	B = 0%	C = -11	D = u	E = u	F = -22%
> COc1ccc(NC(=O)CN2CC(c3ccccc3)CC2=O)cc1OC (stereo not given)
  A = 12%[57.4 µM]	B = -10%	C = -14	D = -7%	E = 1%	F = -33%
> CN(Cc1cccnc1)C(=O)CC1C(=O)NCCN1Cc1ccc(-c2ccccc2)cc1 (stereo not given)
  A = -1%	B = -1%	C = -5	D = 21%	E = 0%	F = -16%
> CN1C[C@H](O)C[C@H]1c1nnc2n1CCN(C(=O)C1CCCCC1)CC2
  A = -3%	B = x	C = x	D = x	E = x	F = x
> CN(Cc1ccc(Br)cc1)CC(O)COc1cccc(Br)c1 (stereo not given)
  A = 0.89µM*	B = 1%	C = 27	D = -5%	E = 6%	F = -1%
> N#CC(=C(O)c1ccc(Cl)cc1Cl)c1nc2cc(Cl)ccc2c(=O)[nH]1
  A = 22µM*	B = x	C = x	D = x	E = x	F = x
> CCOc1ccccc1C(=O)NC1CCN(Cc2nnnn2C2CCCC2)CC1
  A = -8%	B = -9%	C = 3	D = -4%	E = 5%[38.3 µM]	F = i
> N#Cc1cccc(-c2ccnc(N[C@H]3CO[C@H]4[C@@H]3OC[C@@H]4NC(=O)c3ccc(C(F)(F)F)cc3)n2)c1
  A = 6%	B = x	C = x	D = x	E = x	F = x
> COc1cccc(/C=N/N2C(=O)CSC2=S)c1O
  A = 35µM*	B = x	C = u	D = -45%	E = 1%	F = -11%
> O=C1CSC(=S)N1/N=C/c1c(F)cccc1F
  A = 28µM*	B = 57%	C = 7	D = -5%	E = -1%	F = i
> O=C1CSC(=S)N1N=Cc1c(O)ccc2ccccc12
  A = 11µM*	B = 58%	C = -2	D = x	E = -4%	F = i
> COc1cc(/C=N/N2C(=O)CSC2=S)cc(Br)c1O
  A = u	B = 147%	C = -6	D = -12%	E = -1%	F = -13%
> COC(=O)C(CC(=O)c1ccc(Cl)cc1)c1ccc(C)cc1 (stereo not given)
  A = 0%	B = -2%	C = 13	D = -22%	E = 5%	F = -45%
> Cc1cccc(C)c1NC(=O)CN1C(=O)N(C)Cc2ccccc21
  A = -8%	B = 13%	C = 10	D = -7%	E = 3%	F = -24%
> Cc1ccc(/C=C2/Sc3ccc(C(=O)NCc4ccccn4)cc3NC2=O)cc1
  A = 11%	B = 1%	C = -10	D = -8%	E = 28µM*	F = 19%
> CN(CC(=O)NC(C)(C)C)C(=O)CSc1nnc(-c2cc3c(s2)CCC(C(C)(C)C)C3)n1C (stereo not given)
  A = 14%	B = x	C = x	D = x	E = x	F = x
> Cc1ccc(CSCc2nc3ccccc3[nH]2)cc1
  A = 4%	B = 3%	C = 3	D = -23%	E = -2%	F = u
> Cc1cc(C)cc(CC(Cc2nc3ccccc3[nH]2)c2nc3ccccc3[nH]2)c1 (stereo not given)
  A = 0%	B = u	C = -9	D = u	E = 16µM*	F = u
> OCCC1CN(Cc2c(O)ccc3ccccc23)CCN1CCc1ccccc1 (stereo not given)
  A = 7.1µM*	B = -4%	C = 11	D = -5%	E = 2%	F = -27%
> COc1ccc2ccc(O)c(CN3CCN(S(=O)(=O)c4cccc(C(F)(F)F)c4)CC3)c2c1
  A = -14%	B = 0%	C = 20	D = x	E = 0%	F = -13%
> Oc1ccc2ccccc2c1CN1CCOCC1
  A = 7.1µM*	B = -4%	C = -21	D = -1%	E = 1%	F = i
> O=S(=O)(c1c(F)cccc1F)N1CCN(Cc2c(O)ccc3ccccc23)CC1
  A = 13µM*	B = 1%	C = -27	D = x	E = 0%	F = -12%
> Oc1cnc2ccccc2c1CN1CCOCC1
  A = -23%	B = -25%	C = 1	D = -3%	E = -1%	F = -8%[57.5 µM]
> CCc1ccc(C(=O)N(CCN(C)C)CC(=O)OC(C)(C)C)cc1
  A = -25%	B = x	C = x	D = x	E = x	F = x
> CCOc1ccccc1N1C(=O)c2ccc(C(=O)O)cc2C1=O
  A = u	B = 1%	C = 1	D = -2%	E = -2%	F = i
> COc1cc(CN2C[C@@H](CO)[C@H](NC(C)=O)C2)cc(OC)c1
  A = 32%	B = x	C = x	D = x	E = x	F = x
> O=C(OCc1nnc(-c2ccccc2)o1)c1cc(S(=O)(=O)N2CCOCC2)c(Cl)cc1Cl
  A = 37%	B = -2%	C = -4	D = -11%	E = 4%	F = -5%[57.5 µM]
> COC(=O)C1=C(C)N=C2SC=C(CC(=O)NCc3ccccc3F)N2C1c1cccc(OC)c1 (stereo not given)
  A = 59%	B = x	C = x	D = x	E = x	F = x
> CC(C)Cc1nnc(NC(=O)Cc2cccs2)s1
  A = u	B = 9%	C = -14	D = -10%	E = 0%	F = -10%
> CC(C)(C)Cc1nnc(NC(=O)Cc2cccs2)s1
  A = 45µM*	B = -4%	C = -8	D = -1%	E = 2%	F = -2%

Reprinted at random: three entries already listed
Key to letters: A = 12-LOX inh; B = ERG Ets-DNA blk; C = Giardia kill; D = miR-21 FLuc; E = PINK1 expr mod; F = PTHR1 agonist
> CC(C)Cc1nnc(NC(=O)Cc2cccs2)s1
  A = u	B = 9%	C = -14	D = -10%	E = 0%	F = -10%
> CCc1ccc(C(=O)N(CCN(C)C)CC(=O)OC(C)(C)C)cc1
  A = -25%	B = x	C = x	D = x	E = x	F = x
> O=S(=O)(c1c(F)cccc1F)N1CCN(Cc2c(O)ccc3ccccc23)CC1
  A = 13µM*	B = 1%	C = -27	D = x	E = 0%	F = -12%

Further compounds.
Key to letters: A = 12-LOX inh; B = ERG Ets-DNA blk; C = Giardia kill; D = miR-21 FLuc; E = PINK1 expr mod; F = PTHR1 agonist
> O=C(Cc1cccs1)Nc1nnc(Cc2ccccc2)s1
  A = 45µM*	B = 5%	C = 4	D = -21%	E = 14%	F = -5%
> COc1cc2nc(Nc3ccc(C)c(C)c3)nc(N)c2cc1OC
  A = u	B = -1%	C = 57	D = 1%	E = -1%	F = i
> COc1cc2nc(Nc3ccc(C)c(Cl)c3)nc(N)c2cc1OC
  A = 20µM*	B = 10%	C = -12	D = 27%	E = -4%	F = -18%
> Cc1onc(-c2ccccc2)c1C(=O)NN=Cc1cc(Cl)cc(Cl)c1O
  A = 13µM*	B = x	C = x	D = x	E = x	F = x
> OC(COc1c(F)cc(Br)cc1F)CN1CCN(c2ccc(F)cc2)CC1 (stereo not given)
  A = u	B = -10%	C = 5	D = -1%	E = u	F = -15%
> O=[N+]([O-])c1ccc(/C=N/n2c(CO)nc3ccccc32)s1
  A = u	B = -4%	C = -106*	D = 12%	E = 17%	F = i
